These results are taken from PubChem BioAssay AID1417 (Emory University Molecular Libraries Screening Center, 2008).

The chains behind the UniProt entries cited, without tags or fusion partners.
UniProt Q07820, whole entry, looked up: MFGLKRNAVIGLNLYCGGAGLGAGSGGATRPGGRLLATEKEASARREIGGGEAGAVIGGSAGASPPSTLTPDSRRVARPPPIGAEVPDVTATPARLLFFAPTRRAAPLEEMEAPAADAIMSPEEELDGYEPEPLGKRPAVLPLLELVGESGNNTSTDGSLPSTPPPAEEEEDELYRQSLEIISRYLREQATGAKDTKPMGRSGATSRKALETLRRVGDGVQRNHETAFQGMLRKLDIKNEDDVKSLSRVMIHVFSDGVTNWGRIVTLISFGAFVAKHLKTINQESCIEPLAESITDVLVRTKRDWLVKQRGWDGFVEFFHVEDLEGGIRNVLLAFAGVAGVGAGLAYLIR

The target in the assay is Induced myeloid leukemia cell differentiation protein Mcl-1 (Homo sapiens) (UniProt Q07820). Nature of the assay: Mcl-1 Noxa peptide disruption concentration-response – biochemical, TR-FRET, dose response (AID 1417). The conditions noted are these: Mcl-1/Noxa peptide interaction, cell-free TR-FRET (terbium/rhodamine), 2 h; measured here: absolute IC50. Background: TR-FRET usually uses a lanthanide donor and a delayed reading to cut background.

A value given as a limit tells only on which side of the number the result lay.

`CC1(C)N([O-])c2cc([N+](=O)[O-])ccc2[N+]1=O`: the IC50 – broadly, the midpoint of a concentration-inhibition curve – is above 54 µM.
